Patent EP4603105A1, “PHARMACEUTICAL COMPOSITION CONTAINING CYCLIC COMPOUND HAVING SELECTIVE KRAS INHIBITORY EFFECT AGAINST HRAS AND NRAS” (CHUGAI SEIYAKU KABUSHIKI KAISHA, priority 2022, dated 2024)

Protein sequences, listed by entry. Tags and fused reporters are not part of them.
UniProt P01112, whole entry: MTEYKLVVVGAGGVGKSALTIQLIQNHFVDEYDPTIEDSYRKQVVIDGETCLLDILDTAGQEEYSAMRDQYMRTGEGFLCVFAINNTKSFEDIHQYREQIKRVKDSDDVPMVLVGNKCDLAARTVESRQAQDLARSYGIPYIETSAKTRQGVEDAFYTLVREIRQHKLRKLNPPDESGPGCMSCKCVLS

The compounds below were run against HRAS wild-type protein (Homo sapiens, UniProt P01112) (assay: Binding to HRAS by surface plasmon resonance (SPR), KD and KD ratio to KRAS). Details: ratio of KD for HRAS wild-type protein to KD for KRAS.

Row | SMILES | HRAS /KRAS
1 | CCCOC[C@H]1C(=O)N[C@@H]([C@@H](C)CC)C(=O)N(C)CC(=O)N(C)[C@H]2C/C=C\CCN(C2=O)[C@@H](CC2CCC(F)(F)CC2)C(=O)N(C)CC(=O)N[C@@H](CCc2ccc(C(F)(F)F)c(OC)c2)C(=O)N2C[C@@H](C)C[C@H]2C(=O)N(C)C2(CCC2)C(=O)N(C)[C@@H](C2CCCC2)C(=O)N(C)[C@H](C(=O)N(C)C)CC(=O)N1C | A (a compound having 10 or more and less than 20 is denoted as A)
2 | CCO[C@@H]1C[C@H]2C(=O)NC3(CC(C)(C)C3)C(=O)N(C)[C@@H](C3CCCC3)C(=O)N(C)[C@H](C(=O)N(C)CC)CC(=O)N(C)[C@@H](COC)C(=O)N[C@@H]([C@@H](C)CC)C(=O)N(C)CC(=O)N(C)[C@H]3C/C=C\CCN(C3=O)[C@@H](Cc3ccc(C)cc3)C(=O)N(C)CC(=O)N[C@@H](CCc3ccc(C(F)(F)F)c(OC)c3)C(=O)N2C1 | A (a compound having 10 or more and less than 20 is denoted as A)
3 | CC[C@H](C)[C@@H]1NC(=O)[C@H](COC)N(C)C(=O)C[C@@H](C(=O)N(C)C)N(C)C(=O)[C@H](C2CCCC2)N(C)C(=O)C2(CC(C)(C)C2)NC(=O)[C@@H]2C[C@H](C)CN2C(=O)[C@H](CCc2ccc(C(F)(F)F)c(OC)c2)NC(=O)CN(C)C(=O)[C@H](Cc2ccc(C)cc2)N2CC/C=C\C[C@@H](C2=O)N(C)C(=O)CN(C)C1=O | B (a compound having 3 or more and less than 10 is denoted as B)
4 | CCCOC[C@H]1C(=O)N[C@@H]([C@@H](C)CC)C(=O)N2CCC[C@H]2C(=O)N(C)[C@H]2C/C=C\CCN(C2=O)[C@@H](Cc2ccc(C)cc2)C(=O)N(C)CC(=O)N[C@@H](CCc2ccc(C(F)(F)F)c(OC)c2)C(=O)N2C[C@@H](C)C[C@H]2C(=O)NC2(CC(C)(C)C2)C(=O)N(C)[C@@H](C2CCCC2)C(=O)N(C)[C@H](C(=O)N(C)CC)CC(=O)N1C | B (a compound having 3 or more and less than 10 is denoted as B)
5 | CCCOCC1C(=O)NC(C(C)OCC)C(=O)N(C)CC(=O)N(C)C2CC=CCCN(C2=O)C(Cc2ccc(C)cc2)C(=O)N(C)CC(=O)NC(CCc2cc(F)c(C(F)(F)F)c(F)c2)C(=O)N2CC(C)CC2C(=O)NC2(CC(C)(C)C2)C(=O)N(C)C(C2CCCC2)C(=O)N(C)C(C(=O)N(C)CC)CC(=O)N1C (stereo not shown) | A (a compound having 10 or more and less than 20 is denoted as A)

Same assay, conditions: ratio of KD with respect to HRAS wild-type protein to KD with respect to KRAS

Row | SMILES | HRAS /KRAS
6 | CCOC1CC2C(=O)NC3(CCC3)C(=O)N(C)C(C3CCCC3)C(=O)N(C)C(C(=O)N3CCCC3)CC(=O)N(C)C(CC3CCCCC3)C(=O)NC(C(C)CC)C(=O)N(C)CC(=O)N(C)C3CC=CCCN(C3=O)C(Cc3ccc(C(F)(F)F)cc3)C(=O)N(C)CC(=O)NC(CCc3cc(F)c(C(F)(F)F)c(F)c3)C(=O)N2C1 (stereo not shown) | A (a compound having 10 or more and less than 20 is denoted as A)
7 | CCC[C@H]1C(=O)N[C@@H]([C@@H](C)CC)C(=O)N(C)CC(=O)N(C)[C@H]2C/C=C\CCN(C2=O)[C@@H](Cc2ccc(C(F)(F)F)cc2)C(=O)N(C)CC(=O)N[C@@H](CCc2ccc3sccc3c2)C(=O)N2C[C@H](OCC)C[C@H]2C(=O)NC2(CCC2)C(=O)N(C)[C@@H](C(CC)CC)C(=O)N(C)[C@H](C(=O)N(C)C)CC(=O)N1C | A (a compound having 10 or more and less than 20 is denoted as A)
8 | CC[C@H](C)[C@@H]1NC(=O)[C@H](CC)N(C)C(=O)C[C@@H](C(=O)N(C)C)N(C)C(=O)[C@H](C2CCCC2)N(C)C(=O)C2(CCCC2)NC(=O)[C@@H]2CCCN2C(=O)[C@H](CCc2ccc(C(F)(F)F)c(Cl)c2)NC(=O)CN(C)C(=O)[C@H](Cc2ccc(C(F)(F)F)cc2)N2C[C@H](C)CC[C@@H](C2=O)N(C)C(=O)CN(C)C1=O | B (a compound having 3 or more and less than 10 is denoted as B)
9 | CCC[C@H]1C(=O)N[C@@H]([C@@H](C)CC)C(=O)N(C)CC(=O)N(C)[C@H]2C/C=C\CCN(C2=O)[C@@H](Cc2ccc(C(F)(F)F)cc2)C(=O)N(C)CC(=O)N[C@@H](CCc2cc(F)c(C(F)(F)F)c(F)c2)C(=O)N2C[C@H](OCC)C[C@H]2C(=O)NC2(CCC2)C(=O)N(C)[C@@H](C2CCCC2)C(=O)N(C)[C@H](C(=O)N2CCOCC2)CC(=O)N1C | A (a compound having 10 or more and less than 20 is denoted as A)
10 | CCO[C@@H]1C[C@H]2C(=O)NC3(CCC3)C(=O)N(C)[C@@H](C3CCCC3)C(=O)N(C)[C@H](C(=O)N(C)C)CC(=O)N(C)[C@@H](CC)C(=O)N[C@@H]([C@@H](C)CC)C(=O)N(C)CC(=O)N(C)[C@H]3C/C=C\CCN(C3=O)[C@@H](Cc3ccc(C(F)(F)F)cc3)C(=O)N(C)CC(=O)N[C@@H](CCc3cc(F)c(Cl)c(F)c3)C(=O)N2C1 | B (a compound having 3 or more and less than 10 is denoted as B)
11 | CCO[C@@H]1C[C@H]2C(=O)NC3(CC(F)(F)C3)C(=O)N(C)[C@@H](C3CCCC3)C(=O)N(C)[C@H](C(=O)N(C)C)CC(=O)N(C)[C@@H](CC)C(=O)N[C@@H]([C@@H](C)CC)C(=O)N(C)CC(=O)N(C)[C@H]3C/C=C\CCN(C3=O)[C@@H](Cc3ccc(C(F)(F)F)cc3)C(=O)N(C)CC(=O)N[C@@H](CCc3cc(F)c(C(F)(F)F)c(F)c3)C(=O)N2C1 | A (a compound having 10 or more and less than 20 is denoted as A)
12 | CC[C@H](C)[C@@H]1NC(=O)[C@H](CC2CC2)N(C)C(=O)C[C@@H](C(=O)N2CCOCC2)N(C)C(=O)[C@H](C2CCCC2)N(C)C(=O)C2(CCC2)NC(=O)[C@@H]2CCCN2C(=O)[C@H](CCc2ccc(C(F)(F)F)c(Cl)c2)NC(=O)CN(C)C(=O)[C@H](Cc2ccc(C(F)(F)F)cc2)N2C[C@H](C)CC[C@@H](C2=O)N(C)C(=O)CN(C)C1=O | B (a compound having 3 or more and less than 10 is denoted as B)
13 | CCO[C@@H]1C[C@H]2C(=O)NC3(CCC3)C(=O)N(C)[C@@H](C3CCCC3)C(=O)N(C)[C@H](C(=O)N3CCOCC3)CC(=O)N(C)[C@@H](CC3CCC3)C(=O)N[C@@H]([C@@H](C)CC)C(=O)N(C)CC(=O)N(C)[C@H]3C/C=C\CCN(C3=O)[C@@H](Cc3ccc(C)cc3)C(=O)N(C)CC(=O)N[C@@H](CCc3cc(F)c(C(F)(F)F)c(F)c3)C(=O)N2C1 | A (a compound having 10 or more and less than 20 is denoted as A)
14 | CCO[C@@H]1C[C@H]2C(=O)NC3(CCC3)C(=O)N(C)[C@@H](C3CCCC3)C(=O)N(C)[C@H](C(=O)N(C)C)CC(=O)N(C)[C@@H](CSC)C(=O)N[C@@H]([C@@H](C)CC)C(=O)N(C)CC(=O)N(C)[C@H]3C/C=C\CCN(C3=O)[C@@H](CC3CCC(F)(F)CC3)C(=O)N(C)CC(=O)N[C@@H](CCc3cc(F)c(C(F)(F)F)c(F)c3)C(=O)N2C1 | A (a compound having 10 or more and less than 20 is denoted as A)
15 | CC[C@H](C)[C@@H]1NC(=O)[C@H](CC)N(C)C(=O)C[C@@H](C(=O)N2CCOCC2)N(C)C(=O)[C@H](C2CCCC2)N(C)C(=O)C2(CCC2)NC(=O)[C@@H]2CCCN2C(=O)[C@H](CCc2ccc(C(F)(F)F)c(Cl)c2)NC(=O)CN(C)C(=O)[C@H](Cc2ccc(C(F)(F)F)cc2)N2C[C@H](C)CC[C@@H](C2=O)N(C)C(=O)CN(C)C1=O | B (a compound having 3 or more and less than 10 is denoted as B)
16 | CCO[C@@H]1C[C@H]2C(=O)NC3(CCC3)C(=O)N(C)[C@@H](C3CCCC3)C(=O)N(C)[C@H](C(=O)N3CCCCC3)CC(=O)N(C)[C@@H](C)C(=O)N[C@@H]([C@@H](C)CC)C(=O)N(C)CC(=O)N(C)[C@H]3C/C=C\CCN(C3=O)[C@@H](Cc3ccc(C(F)(F)F)cc3)C(=O)N(C)CC(=O)N[C@@H](CCc3cc(F)c(C(F)(F)F)c(F)c3)C(=O)N2C1 | A (a compound having 10 or more and less than 20 is denoted as A)
